Displacement data for 64 compounds are collected here from PubChem BioAssay AID1817 (Sanford-Burnham Center for Chemical Genomics, 2009).

The chains behind the UniProt entries cited, without tags or fusion partners.
UniProt Q8IUQ4, whole entry: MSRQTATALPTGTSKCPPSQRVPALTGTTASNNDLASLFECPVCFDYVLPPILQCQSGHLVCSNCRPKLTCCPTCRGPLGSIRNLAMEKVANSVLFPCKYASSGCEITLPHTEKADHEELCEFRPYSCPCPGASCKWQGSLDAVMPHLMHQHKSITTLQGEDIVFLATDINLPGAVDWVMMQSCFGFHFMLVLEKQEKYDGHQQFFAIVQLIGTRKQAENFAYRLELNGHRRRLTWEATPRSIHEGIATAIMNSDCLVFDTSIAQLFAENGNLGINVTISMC
UniProt Q15149, whole entry partner: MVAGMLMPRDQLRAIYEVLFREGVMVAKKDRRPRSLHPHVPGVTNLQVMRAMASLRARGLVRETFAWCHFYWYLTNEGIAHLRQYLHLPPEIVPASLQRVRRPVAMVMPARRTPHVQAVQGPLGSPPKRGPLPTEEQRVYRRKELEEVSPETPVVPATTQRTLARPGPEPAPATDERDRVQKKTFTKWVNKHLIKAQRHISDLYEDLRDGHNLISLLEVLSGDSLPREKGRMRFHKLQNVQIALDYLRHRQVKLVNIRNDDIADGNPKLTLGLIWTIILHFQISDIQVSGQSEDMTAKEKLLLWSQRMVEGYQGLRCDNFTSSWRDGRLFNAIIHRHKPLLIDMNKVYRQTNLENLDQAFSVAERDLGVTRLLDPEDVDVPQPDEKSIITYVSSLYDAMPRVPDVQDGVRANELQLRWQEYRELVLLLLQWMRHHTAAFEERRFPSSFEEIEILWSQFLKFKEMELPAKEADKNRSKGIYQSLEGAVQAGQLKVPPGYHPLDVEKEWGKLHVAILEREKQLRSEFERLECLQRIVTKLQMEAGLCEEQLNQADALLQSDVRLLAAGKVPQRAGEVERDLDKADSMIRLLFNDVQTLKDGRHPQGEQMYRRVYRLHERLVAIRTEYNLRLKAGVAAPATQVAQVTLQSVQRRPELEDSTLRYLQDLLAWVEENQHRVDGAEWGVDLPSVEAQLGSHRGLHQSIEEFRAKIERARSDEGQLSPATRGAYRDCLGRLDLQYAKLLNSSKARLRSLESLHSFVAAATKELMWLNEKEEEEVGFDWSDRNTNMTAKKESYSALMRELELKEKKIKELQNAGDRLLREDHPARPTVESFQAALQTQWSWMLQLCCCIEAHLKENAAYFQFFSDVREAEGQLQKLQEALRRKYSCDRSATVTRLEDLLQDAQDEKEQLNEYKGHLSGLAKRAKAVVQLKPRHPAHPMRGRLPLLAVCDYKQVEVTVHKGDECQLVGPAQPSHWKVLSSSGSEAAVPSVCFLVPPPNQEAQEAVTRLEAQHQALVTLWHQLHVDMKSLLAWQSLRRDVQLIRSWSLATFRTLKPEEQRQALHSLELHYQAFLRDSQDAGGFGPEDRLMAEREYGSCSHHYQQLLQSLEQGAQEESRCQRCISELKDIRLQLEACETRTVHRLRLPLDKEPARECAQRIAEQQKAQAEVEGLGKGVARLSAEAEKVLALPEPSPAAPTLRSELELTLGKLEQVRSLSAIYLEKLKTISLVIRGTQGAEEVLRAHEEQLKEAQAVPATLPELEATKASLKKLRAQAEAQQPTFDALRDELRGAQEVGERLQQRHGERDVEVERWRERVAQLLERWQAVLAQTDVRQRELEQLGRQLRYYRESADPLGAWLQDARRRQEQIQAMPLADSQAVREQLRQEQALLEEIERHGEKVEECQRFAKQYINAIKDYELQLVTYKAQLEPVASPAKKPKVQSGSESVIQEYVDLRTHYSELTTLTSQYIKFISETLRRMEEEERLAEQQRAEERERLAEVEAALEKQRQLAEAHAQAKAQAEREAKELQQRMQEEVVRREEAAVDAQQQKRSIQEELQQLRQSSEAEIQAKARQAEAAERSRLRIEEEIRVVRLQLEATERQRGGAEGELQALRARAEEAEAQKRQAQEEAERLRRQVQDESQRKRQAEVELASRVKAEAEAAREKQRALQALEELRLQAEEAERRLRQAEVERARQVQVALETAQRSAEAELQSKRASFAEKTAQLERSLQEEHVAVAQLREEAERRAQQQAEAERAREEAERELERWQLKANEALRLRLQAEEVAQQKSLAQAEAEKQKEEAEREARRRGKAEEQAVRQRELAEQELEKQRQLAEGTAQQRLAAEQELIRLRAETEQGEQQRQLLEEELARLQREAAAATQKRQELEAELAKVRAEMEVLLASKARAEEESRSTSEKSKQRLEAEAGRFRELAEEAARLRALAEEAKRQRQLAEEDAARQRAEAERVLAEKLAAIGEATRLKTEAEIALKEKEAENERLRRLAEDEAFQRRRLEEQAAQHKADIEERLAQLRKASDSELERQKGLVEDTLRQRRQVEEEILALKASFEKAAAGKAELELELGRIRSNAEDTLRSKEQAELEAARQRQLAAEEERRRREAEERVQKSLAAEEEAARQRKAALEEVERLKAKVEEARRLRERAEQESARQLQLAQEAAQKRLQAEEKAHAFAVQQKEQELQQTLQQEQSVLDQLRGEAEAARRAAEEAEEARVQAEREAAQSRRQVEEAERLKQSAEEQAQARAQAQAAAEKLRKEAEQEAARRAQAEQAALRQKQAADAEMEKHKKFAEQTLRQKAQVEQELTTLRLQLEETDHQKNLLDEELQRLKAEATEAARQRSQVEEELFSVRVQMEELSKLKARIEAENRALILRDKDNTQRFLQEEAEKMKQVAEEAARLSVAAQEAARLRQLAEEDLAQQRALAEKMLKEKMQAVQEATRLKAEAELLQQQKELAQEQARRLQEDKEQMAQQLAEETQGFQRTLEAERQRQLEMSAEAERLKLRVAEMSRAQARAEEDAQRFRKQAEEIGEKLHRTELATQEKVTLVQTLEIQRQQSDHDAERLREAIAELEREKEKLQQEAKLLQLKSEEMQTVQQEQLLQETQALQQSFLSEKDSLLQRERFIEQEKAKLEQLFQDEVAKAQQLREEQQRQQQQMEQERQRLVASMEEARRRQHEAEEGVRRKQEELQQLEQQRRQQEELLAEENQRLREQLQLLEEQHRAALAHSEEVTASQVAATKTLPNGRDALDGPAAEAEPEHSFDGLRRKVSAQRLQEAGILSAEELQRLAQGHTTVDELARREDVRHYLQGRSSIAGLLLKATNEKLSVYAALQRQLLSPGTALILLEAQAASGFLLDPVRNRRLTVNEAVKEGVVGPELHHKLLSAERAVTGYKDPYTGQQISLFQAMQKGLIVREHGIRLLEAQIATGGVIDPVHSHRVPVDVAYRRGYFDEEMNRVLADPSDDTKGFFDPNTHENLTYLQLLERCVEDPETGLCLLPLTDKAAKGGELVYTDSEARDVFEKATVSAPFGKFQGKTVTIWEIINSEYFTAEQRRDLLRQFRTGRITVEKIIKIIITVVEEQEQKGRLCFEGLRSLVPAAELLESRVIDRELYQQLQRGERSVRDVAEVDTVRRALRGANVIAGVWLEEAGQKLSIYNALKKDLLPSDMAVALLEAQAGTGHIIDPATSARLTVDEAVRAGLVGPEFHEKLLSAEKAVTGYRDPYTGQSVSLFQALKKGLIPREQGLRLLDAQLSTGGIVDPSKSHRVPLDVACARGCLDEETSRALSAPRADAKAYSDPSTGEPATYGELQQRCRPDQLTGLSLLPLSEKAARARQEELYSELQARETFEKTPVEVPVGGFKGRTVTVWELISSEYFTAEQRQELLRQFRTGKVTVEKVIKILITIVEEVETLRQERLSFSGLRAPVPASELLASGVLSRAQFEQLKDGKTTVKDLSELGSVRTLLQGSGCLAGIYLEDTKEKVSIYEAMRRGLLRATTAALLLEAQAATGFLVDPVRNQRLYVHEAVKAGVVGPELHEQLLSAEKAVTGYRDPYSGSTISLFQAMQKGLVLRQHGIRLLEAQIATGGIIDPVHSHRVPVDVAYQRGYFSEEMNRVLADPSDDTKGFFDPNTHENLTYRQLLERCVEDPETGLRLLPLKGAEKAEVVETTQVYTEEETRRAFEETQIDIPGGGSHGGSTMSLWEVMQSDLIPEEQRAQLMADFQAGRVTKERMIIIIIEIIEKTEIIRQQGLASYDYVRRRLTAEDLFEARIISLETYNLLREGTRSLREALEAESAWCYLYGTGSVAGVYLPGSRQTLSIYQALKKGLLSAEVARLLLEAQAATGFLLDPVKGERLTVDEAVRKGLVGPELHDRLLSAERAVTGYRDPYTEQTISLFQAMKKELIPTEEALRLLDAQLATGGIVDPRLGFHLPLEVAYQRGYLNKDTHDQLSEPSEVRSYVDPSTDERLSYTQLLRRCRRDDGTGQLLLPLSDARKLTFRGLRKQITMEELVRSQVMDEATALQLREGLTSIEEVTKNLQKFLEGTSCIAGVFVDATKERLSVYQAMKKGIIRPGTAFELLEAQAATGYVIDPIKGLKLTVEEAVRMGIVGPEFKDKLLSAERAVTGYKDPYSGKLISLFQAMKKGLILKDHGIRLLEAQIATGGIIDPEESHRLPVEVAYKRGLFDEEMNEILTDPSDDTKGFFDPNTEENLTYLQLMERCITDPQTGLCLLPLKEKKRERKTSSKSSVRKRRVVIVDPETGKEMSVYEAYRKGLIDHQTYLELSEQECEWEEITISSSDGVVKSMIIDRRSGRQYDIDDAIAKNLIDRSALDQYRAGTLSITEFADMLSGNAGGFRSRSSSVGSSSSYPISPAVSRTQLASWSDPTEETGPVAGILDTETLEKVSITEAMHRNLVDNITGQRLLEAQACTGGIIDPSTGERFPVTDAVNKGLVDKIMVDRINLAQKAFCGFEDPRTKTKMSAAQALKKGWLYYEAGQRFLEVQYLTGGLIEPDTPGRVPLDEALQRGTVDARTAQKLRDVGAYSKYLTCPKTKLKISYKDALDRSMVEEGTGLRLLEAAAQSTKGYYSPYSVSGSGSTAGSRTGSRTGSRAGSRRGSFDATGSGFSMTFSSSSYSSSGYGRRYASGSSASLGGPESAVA

The structures appear in SMILES notation. The entries are a selection whose mix differs from that of the whole data set. Measured potencies and affinities stand elsewhere. Some structures show a salt or complex split into parts, the way the source records it. Calls of active or inactive are those of the source.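 Rule for the calls: active = displacement of at least 50% at 20 µM, with a fluorescence ratio check between 0.3 and a set limit; inactive = the rest.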

The target in this experiment is E3 ubiquitin-protein ligase SIAH1 (Homo sapiens) (UniProt Q8IUQ4). Description: blockers of Siah-1 interaction with plectin peptide – biochemical, fluorescence polarization, rhodamine-plectin, uHTS, primary screen (AID 1817).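 Note: plate controls were Siah plus tracer with DMSO for no effect and tracer alone without Siah for full effect.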 Particulars: Siah-1 / rhodamine-plectin peptide fluorescence polarization; at 20 µM; hits give high values. Background: In fluorescence polarisation assays a small probe gives low polarisation when free and higher when bound to something large.
Regarding `CP(=O)(Nc1ccccc1F)Oc1ccccc1` (centres undefined), the displacement was inactive: 3.8%.

As for `CC(C)c1ccc(OP(C)(=O)Nc2ccc(SC(F)(F)F)cc2)cc1` (centres undefined), the displacement is inactive: -0.9%.

In the case of `O=C(OC1CN2CCC1CC2)c1ccc([N+](=O)[O-])cc1` (centres undefined), the displacement was inactive: 0.9%.

As for `O=C(OCCN1CCN(CCOCc2ccccc2)CC1)C(O)(c1ccccc1)c1ccccc1`, the displacement was inactive: 5.3%.

For `COc1ccc2c(c1O)-c1c(O)c(OC)cc3c1[C@H](C2)[N+](C)(C)CC3.O=[N+]([O-])c1cc([N+](=O)[O-])c([O-])c([N+](=O)[O-])c1[O-]`, the displacement was inactive: -1.7%.

Regarding `CCOC(=O)c1ccc(NP(C)(=O)Oc2ccc(F)cc2)cc1` (centres undefined), the displacement was inactive: -12.6%.

On to `COc1ccc(OP(C)(=O)Nc2ccc(SC(F)(F)F)cc2)cc1` (centres undefined), for which the displacement was inactive: -0.2%.

Regarding `CCN(CC)CCCOC(=O)C(O)(c1ccccc1)C1CCCCC1` (centres undefined), the displacement is inactive: 3.9%.

`CP(=O)(Nc1ccccc1)Oc1ccc(F)cc1` (centres undefined): the displacement is inactive: 0.2%.

As to `CCCCCOc1ccc(NP(C)(=O)Oc2ccc(Cl)cc2Cl)cc1` (centres undefined), the displacement is inactive: -0.8%.

Consider `O=[N+]([O-])c1cc([N+](=O)[O-])c(OC2CCCCC2O)c([N+](=O)[O-])c1` (centres undefined), for which the displacement was inactive: 5.7%.

In the case of `COc1ccc(OP(C)(=O)Nc2cccc(Br)c2)cc1` (centres undefined), the displacement is inactive: -6.6%.

For `CN(C)CCOC(=O)C(O)(c1ccccc1)C1CCCCC1` (centres undefined), the displacement was inactive: -0.5%.

For the compound `COc1ccc(NP(C)(=O)Oc2ccccc2OC)cc1` (centres undefined), the displacement was inactive: 5.2%.

Turning to `O=[N+]([O-])c1ccc(OP2(=O)COCCO2)cc1` (centres undefined), the displacement is inactive: 7.4%.

For the compound `O=[N+]([O-])c1cc([N+](=O)[O-])c(NCC2CCS(=O)(=O)C2)c([N+](=O)[O-])c1` (centres undefined), the displacement is inactive: -11.1%.

For `Cc1cc(-c2cccc3ccccc23)c(C)cn1.O=[N+]([O-])c1cc([N+](=O)[O-])c(O)c([N+](=O)[O-])c1`, the displacement was inactive: -6.4%.

For the compound `CP(=O)(Nc1ccc(SC(F)(F)F)cc1)Oc1ccc(F)cc1` (centres undefined), the displacement was inactive: 0.7%.

Regarding `CCOP(C)(=S)SCC(=O)NC(C)(CC)C(=O)O` (centres undefined), the displacement was inactive: -5.6%.

Regarding `CP(=O)(Nc1ccc2c(c1)OCCO2)Oc1ccccc1` (centres undefined), the displacement is inactive: 0.9%.

Consider `Cc1ccccc1NP(C)(=O)Nc1ccccc1C`, for which the displacement was inactive: -4.2%.

For the compound `CCN(CC)CC(O)COC(=O)C(O)(c1ccccc1)C1CCCCC1` (centres undefined), the displacement was inactive: 0.1%.

As to `COc1ccc(OP(C)(=O)Nc2ccc(Br)cc2)cc1` (centres undefined), the displacement is inactive: 2.7%.

Take `COc1ccccc1OP(C)(=O)Nc1c(C)n(C)n(-c2ccccc2)c1=O` (centres undefined): the displacement is inactive: -0.7%.

With `O=C(OCCCN1CCCC1)C(O)(c1ccccc1)C1CCCCC1` (centres undefined), the displacement was inactive: -1.4%.

With `CP(=O)(Oc1ccccc1)N1CCOC1=O` (centres undefined), the displacement was inactive: 0.4%.

In the case of `CCc1ccc(OP(C)(=O)Nc2cccnc2)cc1` (centres undefined), the displacement was inactive: 9%.

Turning to `COc1ccccc1OP(C)(=O)Nc1ccccc1Br` (centres undefined), the displacement is inactive: 1.7%.

Consider `CC(C)(C)c1ccc(OP(C)(=O)O)cc1`, for which the displacement was inactive: 0.2%.

On to `CP(=O)(Nc1ccc(Cl)cc1)Oc1ccc(F)cc1` (centres undefined), for which the displacement is inactive: 3.9%.

Regarding `CN(C)C(=O)c1c([N+](=O)[O-])cc([N+](=O)[O-])cc1[N+](=O)[O-]`, the displacement was inactive: -1.7%.

Consider `CCOC(=O)c1ccc(NP(C)(=O)Oc2ccc(Cl)cc2)cc1` (centres undefined), for which the displacement is inactive: 3.2%.

Regarding `CP(=O)(OC12CC3CC(CC(C3)C1)C2)OC12CC3CC(CC(C3)C1)C2`, the displacement is inactive: 3.1%.

With `Cc1cc(C)cc(OP(C)(=O)Nc2cccc(C(F)(F)F)c2)c1` (centres undefined), the displacement was inactive: -0.6%.

Take `COc1ccccc1OP(C)(=O)Nc1ccc(C)c(C)c1` (centres undefined): the displacement was inactive: 3.5%.

For `COc1ccc(OP(C)(=O)Nc2ccccc2Br)cc1` (centres undefined), the displacement is inactive: 10.3%.

For the compound `Cc1nc2ccc3ccccc3c2o1.O=[N+]([O-])c1cc([N+](=O)[O-])c(O)c([N+](=O)[O-])c1`, the displacement is inactive: 1.8%.

For the compound `CP(=O)(Nc1ccc(Cl)cc1Cl)Oc1ccccc1` (centres undefined), the displacement was inactive: 5.1%.

As to `CP(=O)(OCCOc1ccccc1)OCCOc1ccccc1`, the displacement was inactive: 2.7%.

For the compound `COc1ccccc1OP(C)(=O)Nc1ccc(Br)cc1` (centres undefined), the displacement is inactive: -0.3%.

Regarding `COc1ccc(OP(C)(=O)Nc2ccccn2)cc1` (centres undefined), the displacement was inactive: 2.5%.

On to `CN(C)CCOC(=O)C(O)(c1ccccc1)C1CCCC1` (centres undefined), for which the displacement is inactive: -1.6%.

In the case of `Cc1c(NP(C)(=O)Oc2ccc(C(C)C)cc2)c(=O)n(-c2ccccc2)n1C` (centres undefined), the displacement is inactive: -4.8%.

Consider `O=[N+]([O-])c1cc([N+](=O)[O-])c(Nc2ccccn2)c([N+](=O)[O-])c1`, for which the displacement is inactive: 1.8%.

Consider `CP(=O)(Nc1ccccn1)Oc1ccccc1` (centres undefined), for which the displacement is inactive: 1.1%.

For `COc1ccccc1OP(C)(=O)Nc1ccc(C)cc1C` (centres undefined), the displacement is inactive: 11.6%.

`CCc1ccc(OP(C)(=O)O)cc1`: the displacement was inactive: -1.5%.

For the compound `CCN(CC)CCCOC(=O)C(O)(c1ccccc1)c1ccccc1`, the displacement is inactive: 0.4%.

Consider `O=[N+]([O-])c1ccc2c(c1)C=Nc1ccccc1O2`, for which the displacement is inactive: -0.5%.

Take `CC(C)(C)c1ccc(OP(C)(=O)Nc2ccc(SC(F)(F)F)cc2)cc1` (centres undefined): the displacement is inactive: 8.8%.

Regarding `Cc1cccc(C)c1OP(C)(N)=O` (centres undefined), the displacement was inactive: 0.3%.

With `COc1ccccc1OP(C)(=O)Nc1ccc(C)cc1` (centres undefined), the displacement was inactive: 5.1%.

On to `Cc1ccc(NP(C)(=O)Oc2ccccc2)c(C)c1` (centres undefined), for which the displacement is inactive: -2.9%.

For `CCOC(=O)c1ccc(NP(C)(=O)Oc2ccccc2)cc1` (centres undefined), the displacement was inactive: 1.2%.

On to `Cc1cc(C)cc(OP(C)(N)=O)c1` (centres undefined), for which the displacement is inactive: 2.7%.

Take `COc1ccccc1OP(C)(=O)Nc1cc(Cl)ccc1C` (centres undefined): the displacement is inactive: 1%.

Turning to `COc1ccc(OP(C)(=O)Nc2cccc(F)c2)cc1` (centres undefined), the displacement is inactive: -1.1%.

Turning to `CP(=S)(Nn1cnnc1)Oc1ccccc1` (centres undefined), the displacement was inactive: -1.4%.

Regarding `CP(=O)(Nc1ccccc1Br)Oc1ccccc1` (centres undefined), the displacement was inactive: -2%.

In the case of `COc1ccccc1OP(C)(=O)Nc1ccccc1` (centres undefined), the displacement was inactive: 13.1%.

As to `CP(=O)(Nc1ccc(SC(F)(F)F)cc1)Oc1ccc(Cl)cc1` (centres undefined), the displacement is inactive: 7.9%.

As to `Cc1cccc(C)c1OP(C)(=O)Nc1ccc(SC(F)(F)F)cc1` (centres undefined), the displacement is inactive: 1.5%.

`CP(=O)(Oc1ccccc1)OC(c1ccccc1)C(F)(F)F` (centres undefined): the displacement is inactive: 6.3%.

On to `CP(=O)(NC(=O)Nc1ccccc1)Oc1ccccc1` (centres undefined), for which the displacement is inactive: -0.5%.
